Consider one compound from patent publication US20090258843A1, “Compositions Containing Antiviral Compounds and Methods of Using the Same” (Mallinckrodt Inc., priority 2008, published 2009).

The data set can be described thus: 5-Fluorouracil solubility in water, UPLC (Example 16 I). Particulars: water 1 mL, 1-N-methylimidazole 0.1 mL + Naproxen 0.0535 g.

Turning to `O=c1[nH]cc(F)c(=O)[nH]1` [5-fluorouracil, 5-fluoro-1H-pyrimidine-2,4-dione], the “solubility of 5-fluorouracil” value is 32.4 mg/mL.
